The values that follow come from patent publication US4755526A, “Method of inhibiting aromatase” (Eli Lilly and Company, priority 1984, dated 1988).

SMILES strings stand for the structures. Structures can show the parent of a compound that is named as a salt.

One experiment has as its target T1, aromatase (Rattus norvegicus, UniProt P22443).
T1 construct: ovarian microsomes are obtained from rats treated with pregnant mares serum gonadotropin; from tissue; host or cells: ovarian microsomes of rats treated with pregnant mares serum gonadotropin
T1 sequence (P22443 1-508): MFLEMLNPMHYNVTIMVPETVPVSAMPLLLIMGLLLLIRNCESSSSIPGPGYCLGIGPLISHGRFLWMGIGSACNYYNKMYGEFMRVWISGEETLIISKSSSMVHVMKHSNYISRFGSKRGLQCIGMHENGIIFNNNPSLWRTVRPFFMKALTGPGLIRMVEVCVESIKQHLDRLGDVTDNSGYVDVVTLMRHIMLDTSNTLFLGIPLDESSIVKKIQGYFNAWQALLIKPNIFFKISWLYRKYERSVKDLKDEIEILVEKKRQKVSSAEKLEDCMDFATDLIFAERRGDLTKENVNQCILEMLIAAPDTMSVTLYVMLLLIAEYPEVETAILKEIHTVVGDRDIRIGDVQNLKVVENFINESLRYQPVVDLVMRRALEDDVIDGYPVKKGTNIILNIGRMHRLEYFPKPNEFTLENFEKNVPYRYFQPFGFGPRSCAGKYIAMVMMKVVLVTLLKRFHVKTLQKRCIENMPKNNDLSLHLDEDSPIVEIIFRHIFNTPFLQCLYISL
The experiment can be described thus: Aromatase inhibition in the rat ovarian microsome assay. Format: biochemical. To be noted: EC50: concentration required to achieve 50% inhibition of aromatase activity.

Another experiment has as its system estrogen synthesis. The experiment can be described thus: Estrogen synthesis inhibition in rats (uterine weight and ovarian steroid concentrations). Particulars: ovaries. The experiment is classed as in vivo, female Wistar rats. On the procedure:
Immature female Wistar rats (45-55 grams) were divided into control and test groups of 2-8 animals each. Test compounds were administered for seven days either daily by gavage in corn oil or as a component of the diet. Control animals received either corn oil or diet without the test compound. Beginning on the fourth day of the test, all animals treated with the test compound and one half of the control animals were given a subcutaneous injection of 1.0 mg of testosterone propionate in corn oil. The remaining control animals received only an equivalent volume of corn oil. On the seventh day of the test, rats treated with testosterone propionate were injected subcutaneously with 100 μCi of [^3 H]-testosterone in 50 μl of 3:1 (v/v) saline-ethanol.
After two hours, the animals were killed by decapitation. Uteri were isolated, trimmed of extraneous connective tissue, and weighed. […] In the control animals treated with testosterone propionate, estrogens produced by aromatization stimulated the uterus resulting in an increase in weight.
Ovaries from rats treated with [^3 H]-testosterone were excised, cleaned of extraneous tissue, and homogenized in 2.5 ml of a 1.0 mM potassium phosphate buffer containing 3.0 mM MgCl2.6H2 O, 320 mM sucrose, and 0.25% Triton X-100 (polyethylene glycol p-isooctyl phenyl ether, Rohm and Haas) at pH 6.5. The ovarian steroids were extracted with 1.5 ml of 9:1 (v/v) toluene/ethanol to which had been added 25 to 100 mcg each of unlabelled estradiol, estriol, and estrone, and approximately 1000 dpm of [^14 C]-estradiol. The samples were vortexed, centrifuged at 500×g for 10 minutes, and the organic phase was transferred to a conical vial. Two additional extractions were performed on the residue in the same way. The pooled organic extracts were evaporated for subsequent thin-layer chromatography.
Ovarian proteins were precipitated by the addition of 5.0 ml of ethanol to the remaining aqueous phase. After an overnight incubation at 4° C., the samples were centrifuged at 1500×g for 10 minutes. The supernatant was discarded, and the pellet was dissolved in 0.3N potassium hydroxide. Protein was determined according to the method of Bradford, Analytical Biochemistry, 72, 248 (1976).
The organic residue from each above extraction was redissolved in 9:1 (v/v) dichloromethane/methanol. The solution of each sample was applied to separate silica gel thin layer chromatography plates which contained a fluorescent indicator. The plates were developed in the first dimension with 160:38:1.5:0.5 (v/v/v/v) dichloromethane/ethyl acetate/methanol/acetic acid to within 3 cm of the top of the plate. After air-drying, the plate was developed in the second dimension with 180:19:1 (v/v/v) dichloromethane/methanol/ammonium hydroxide. The plate was air-dried and viewed under 254 nm UV light.
The visible spots were marked and the plates were sprayed with primulin (0.001% in 4:1 v/v acetone/water) according to the method of Wright, J. Chromatography, 59, 220 (1971) which allowed for the identification of additional steroids under 365 nm UV light. The spots were scraped from the plate using a glass wool plugged Pasteur pipet attached to a vacuum line. The steroids were eluted directly into scintillation vials by the addition of 0.2 ml of dichloromethane followed by two washes each of 2.0 ml of methanol. The organic solvent was evaporated and 10.0 ml of scintillation fluid (Beckman Ready Solv-NA) was added to the vials. Samples were analyzed by liquid scintillation spectrometry. Corrections were made based on the recoveries of the [^14 C]-steroid. Steroid concentrations are expressed as femtomoles per milligram protein.

Where [1] appears, read: 30 ppm in feed (approximately 3 mg/kg/day).
Setting [2] is: 300 ppm in feed (approximately 30 mg/kg/day).

As to `c1ccc2cc(Cn3ccnc3)ccc2c1` [1-(2-naphthalenylmethyl)-1H--imidazole hydrochloride], on aromatase, the EC50 (as a rule, the concentration at which the effect is half-maximal) stood at 270 nM.

Take `COc1ccccc1C(c1ccccc1)n1ccnc1` (centres unmarked) [1-[(2-methoxyphenyl)phenylmethyl]-1H--imidazole nitrate]: in the experiment on estrogen synthesis (setting [1]), the “Mean Steroid Concentration, estradiol” value is 1.31 femtomoles per milligram of protein; the “Mean Steroid Concentration, estriol” value is 1.22 femtomoles per milligram of protein; the “Mean Steroid Concentration, estrone” value is reported as 1.53 femtomoles per milligram of protein. For the same compound, in the experiment on estrogen synthesis (setting [2]), the “Mean Steroid Concentration, estradiol” value is 1.93 femtomoles per milligram of protein; the “Mean Steroid Concentration, estriol” value is listed as 2.07 femtomoles per milligram of protein; the “Mean Steroid Concentration, estrone” value is given as 0.68 femtomoles per milligram of protein.

For `Clc1ccc(C(c2ccccc2)n2ccnc2)cc1` (centres unmarked) [1-[(4-chlorophenyl)phenylmethyl]-1H--imidazole], the “Mean Steroid Concentration, estrone” value in the experiment on estrogen synthesis (setting [1]) was 0.19 femtomoles per milligram of protein.

Take `Clc1ccc(C(c2ccc(Cl)cc2)n2ccnc2)cc1` [1-[bis(4-chlorophenyl)methyl]imidazole]: in the experiment on estrogen synthesis (setting [1]), the “Mean Steroid Concentration, estradiol” value is reported as 0.00 femtomoles per milligram of protein and the “Mean Steroid Concentration, estriol” value is 0.40 femtomoles per milligram of protein. Moreover, in the experiment on estrogen synthesis (setting [2]), the “Mean Steroid Concentration, estradiol” value is 0.00 femtomoles per milligram of protein; the “Mean Steroid Concentration, estriol” value was 0.40 femtomoles per milligram of protein; the “Mean Steroid Concentration, estrone” value is 0.08 femtomoles per milligram of protein.

For the compound `Clc1ccc(C(c2ccc(Cl)cc2)n2cnnc2)cc1` [4-[bis(4-chlorophenyl)methyl]-4H--1,2,4-triazole], the “Mean Steroid Concentration, estrone” value in the experiment with estrogen synthesis (setting [1]) was 0.10 femtomoles per milligram of protein.

Take `Clc1ccc(C(c2ccc(Cl)cc2)(c2cncnc2)n2ccnc2)cc1` [5-[bis(4-chlorophenyl)-1H--imidazol-1-ylmethyl]pyrimidine]: in the experiment on estrogen synthesis (setting [1]), the “Mean Steroid Concentration, estradiol” value is 0.87 femtomoles per milligram of protein; the “Mean Steroid Concentration, estriol” value is 1.87 femtomoles per milligram of protein; the “Mean Steroid Concentration, estrone” value is recorded as 0.45 femtomoles per milligram of protein. Moreover, in the experiment on estrogen synthesis (setting [2]), the “Mean Steroid Concentration, estradiol” value was 0.59 femtomoles per milligram of protein; the “Mean Steroid Concentration, estriol” value is 3.27 femtomoles per milligram of protein; the “Mean Steroid Concentration, estrone” value is listed as 0.57 femtomoles per milligram of protein.
